Where “and” joins values, the source holds several entries; their conditions need not be identical. Equal values may be shown once. The list shows a part of the results, in another mix than the full data. Results filed as inconclusive are left out. Calls of active or inactive are those of the source. Calls follow the shape of the dose curve; as a rule, active = well fitted cell-killing curve with a large enough effect in the repeat runs; inconclusive = weak or mixed curves, or effect the other way; inactive = no such curve, though single readings can be large or run the other way.
% is scaled to controls: 0 for no effect and ±100 for the full control effect.

One experiment can be described thus: qHTS assay to identify small molecule agonists of the vitamin D receptor (VDR) signaling pathway - cell viability counter screen (AID 743224). Also: nearly all actives have a fitted effect of over 50% in size. The conditions noted are these: VDR-bla HEK293T viability, CellTiter-Glo luminescence, 16 h; at 62.6 µM (top of the series). From the text:
U.S. Tox21 Program National Center for Advancing Translational Sciences [NCATS] NIH Chemical Genomics Center [NCGC] U.S. Environmental Protection Agency [EPA] National Institutes of Environmental Health Sciences [NIEHS] National Toxicology Program [NTP] U.S. Food and Drug Administration [FDA] Tox21 Assay Overview: The vitamin D receptor (VDR), a member of nuclear hormone receptor superfamily, plays a critical role in calcium homeostasis and bone metabolism. It is also involved in cell differentiation and growth, and thrombogenicity. […] The cytotoxicity of the Tox21 compound library against the VDR-bla cell line was tested in parallel by measuring the cell viability using CellTiter-Glo assay (Promega, Madison, WI) in the same wells.
Tox21 Assay Protocol Summary: VDR-bla cells were dispensed at 2,000 cells/6 uL/well into black wall/clear-bottom 1536-well plates using a Multidrop Combi (Thermo Fisher Scientific, Waltham, MA) dispenser. After the assay plates were incubated at a 37C and 5% CO2 for 4 h, 23 nL of compounds dissolved in DMSO, positive controls or DMSO only was transferred to the assay plate by a Pintool station (Kalypsys, San Diego, CA). The plates were incubated at 37C and 5% CO2 for 16 h. After 1 uL of LiveBLAzerTM B/G FRET substrate was added using a Bioraptr Flying Reagent Dispenser (FRD) workstation (Beckman Coulter, Indianapolis, IN, USA), the plates were incubated at room temperature for 2 h, and fluorescence intensity was measured by an Envision plate reader (PerkinElmer, Shelton, CT). For cell viability readout that measures cytotoxicity, 3 ul/well of CellTiter-Glo reagent was added into the assay plates using a FRD. After 30 min incubation at room temperature, the luminescence intensity in the plates was measured using a ViewLux (PerkinElmer) plate reader.
(In general: In qHTS, concentration-response curves come from the screen itself.)
For `CCOP(=O)(CC)Oc1ccc([N+](=O)[O-])cc1` (stereo not given), the activity change, negative = cytotoxicity is inactive: 5.19%. In the case of `O=[N+]([O-])[O-].[NH4+]`, the activity change, negative = cytotoxicity was inactive: 7.18% and inactive: -0.674%. On the same count and under the same terms, the same measure for `Cc1c([N+](=O)[O-])cccc1[N+](=O)[O-]`: inactive: 0.462% and inactive: -1.25%. Regarding `Cc1ccc([N+](=O)[O-])c([N+](=O)[O-])c1`, the activity change, negative = cytotoxicity is inactive: 6.42%. Regarding `OCCSCCO`, the activity change, negative = cytotoxicity is inactive: 13.6%. Consider `CP(=O)(O)OCCC[Si](O)(O)O`, for which the activity change, negative = cytotoxicity was inactive: 12.5%. `COP(C)(=O)OC`: the activity change, negative = cytotoxicity is inactive: 1.68%. Consider `C/C1=C2N=C(/C=C3N=C(/C(C)=C4\[N-][C@@](C)([C@@H]5N=C1[C@](C)(CCC(=O)NC[C@@H](C)OP(=O)([O-])O[C@H]1[C@@H](O)[C@@H](n6cnc7cc(C)c(C)cc76)O[C@@H]1CO)[C@H]5CC(N)=O)[C@@](C)(CC(N)=O)[C@@H]4CCC(N)=O)[C@@](C)(CC(N)=O)[C@@H]\3CCC(N)=O)C(C)(C)[C@@H]/2CCC(N)=O.[C-]#N.[Co+3]`, for which the activity change, negative = cytotoxicity was inactive: 5.83%. On the same count and under the same terms, the same measure for `CCOP(=O)(CC)OCC`: inactive: 1.63%; for `COc1ccc([N+](=O)[O-])cc1[N+](=O)[O-]`: inactive: 6.62%.

As to `CC(C)OP(C)(=O)OC(C)C`, the activity change, negative = cytotoxicity was inactive: -3.47% and inactive: 0.576%. As to `O=[N+]([O-])OCC(CO[N+](=O)[O-])(CO[N+](=O)[O-])CO[N+](=O)[O-]`, the activity change, negative = cytotoxicity is inactive: 14.1%.

The experiment is the same for the next values; noted with them: VDR-bla HEK293T viability, CellTiter-Glo luminescence, 16 h; at 81.1 µM (top of the series).
On to `[NH4+].[O-][Cl+3]([O-])([O-])[O-]`, for which the activity change, negative = cytotoxicity was inactive: 4.27%. For the molecule `Cc1ccc([N+](=O)[O-])c([N+](=O)[O-])c1`, the activity change, negative = cytotoxicity was inactive: 11.2%.

In the case of `OCCSCCO`, the activity change, negative = cytotoxicity is inactive: 16.4%.

In the case of `COP(C)(=O)OC`, the activity change, negative = cytotoxicity was inactive: 3.81%. For `CCN(CC)CCCl`, the activity change, negative = cytotoxicity is inactive: 2.71%.

For the molecule `Nc1cc([N+](=O)[O-])cc([N+](=O)[O-])c1O`, the activity change, negative = cytotoxicity is inactive: 0.0211%.

Regarding `N=C(N)N[N+](=O)[O-]`, the activity change, negative = cytotoxicity was inactive: 10.5%. On to `O=[N+]([O-])c1cccc([N+](=O)[O-])c1`, for which the activity change, negative = cytotoxicity is inactive: -18%.

Source of the values: PubChem BioAssay (Tox21).
